AlphaSeq binding of Ab-14 light chain variants to a spike HR2 peptide

Target peptide (SARS-CoV-2 spike, HR2 region): PDVDLGDISGINAS

Parent: Ab-14, a human scFv built as VH, three GGGGS repeats, VL. Only the CDRs of the light chain vary.
VH: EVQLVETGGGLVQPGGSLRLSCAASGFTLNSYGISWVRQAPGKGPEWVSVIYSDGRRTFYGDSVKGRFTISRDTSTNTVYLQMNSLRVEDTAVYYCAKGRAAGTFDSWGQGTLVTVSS
VL: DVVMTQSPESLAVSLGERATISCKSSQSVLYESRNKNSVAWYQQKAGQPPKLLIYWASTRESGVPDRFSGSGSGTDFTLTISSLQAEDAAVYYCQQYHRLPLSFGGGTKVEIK

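This is the validation round: designs drawn from the data on random variants, tested in the same kind of assay. Their group label is 14L_En_Gen (En: ensemble of fine-tuned language models; Gen: genetic algorithm). Affinity was read by AlphaSeq, a pooled yeast mating assay with surface-displayed partners. After mating in shaken culture at 30 °C for 16 h, diploids were selected and their barcode pairs sequenced. Each replicate has its own calibration line, from reference interactions of the BCL2 family. Each pool was mated in six replicate cultures.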

Variants are written as CDR1, CDR2 and CDR3 of the light chain (limits as in the source). Parent: KSSQSVLYESRNKNSVA, WASTRES, QQYHRLPLS. Values are log10 of the apparent Kd in nM; lower means stronger binding. "nd" marks a missing value. The strain was present, yet no cells mated with the target were sequenced in that replicate, which points to weak or no binding. Three control strains display no target. For all light chain designs, 4% of the pairings with them gave a signal, with a median of 2.64 and one signal in twenty below 1.59, so weak values seen in few replicates may be background. For each scFv, signals with the empty controls are counted beside the result, with their mean in brackets. The authors averaged sequences with at least three values out of six and counted those with two or fewer as poor binders. A sequence measured in both rounds can read differently, since the two assays cover different ranges.

CDR-L1	CDR-L2	CDR-L3	log10 Kd, replicates	signal with controls
KIGATLNFLEHKQNNVA	DLVMREN	QQYHRLPLS	nd nd 1.15 nd 0.88 1.63	0/18
TISQLTSSFSQNINNVA	EVSLREK	QQYDRLPLA	0.56 0.94 0.96 0.88 0.57 0.71	0/18
KLSQMLMLTGVHKNNVA	ELTMRGN	QQYHRLPLM	nd 2.10 nd nd nd nd	0/18
KLSMITGHMSMSKNNVA	EMVTREK	QQYNRLPLS	-0.08 -0.06 -0.05 -0.39 -0.03 -0.12	0/18
TVTQMAMTGMKNKRSVA	NAETRES	QQYHRLPLI	nd nd nd nd nd nd	0/18
KLVQFMNRGTHHTSNIA	DAQQRLD	QQYARLPLA	-0.25 0.40 0.35 -0.40 0.03 -0.05	2/18 (2.05)
MLSQMWAIGMKVSNSVA	QASTRFD	QQYERLPFI	nd nd 1.28 nd nd nd	0/18
KVSEFMKGLMMRKDNIA	DNNTRSN	QQYDRLPLS	1.46 1.70 1.66 2.62 2.24 2.30	0/18
KLSMITGHMSVSKNNVA	EMETREK	QQYERLPLS	0.14 0.05 0.15 0.08 0.00 -0.04	1/18 (1.68)
MVNGIMDHLSKQTNNVA	ETTTRNA	QQYDRLPLS	0.74 0.69 0.55 0.63 0.67 0.82	1/18 (2.56)
MISMVTEGMVRKHDSVA	DNSTRES	QQYDRLPLS	1.41 1.35 1.09 1.38 0.88 2.18	0/18
KVSEFMRGLMQKTDSIA	DNVTRQN	QQYDRLPLS	0.53 0.43 0.44 0.23 0.03 0.89	1/18 (1.59)
KIGATLNQLMHKKNNVA	DLVTREN	QQYGRLPLS	0.62 0.54 0.54 0.52 0.52 0.93	2/18 (2.56)
KLSGMMASSKFAKDNVA	ENNTREY	QQYDRLPLS	nd nd nd 2.48 nd nd	2/18 (3.22)
MISQLYNMGSFAINSVA	QASERNT	QQYDRLPLI	0.85 0.84 1.08 0.45 0.96 1.42	0/18
TISQMSTLFSQTINNVA	EVSTREE	QQYDRLPLM	0.75 0.18 0.36 0.20 0.57 0.51	0/18
KLRSVTGTEKVNGNNVA	EMETRER	QQYNRLPLS	0.67 0.54 0.33 0.46 0.60 0.51	1/18 (3.33)
MISQLYNMGQFAINSVA	QASLRND	QQYDRLPLA	0.86 0.84 1.47 0.91 1.32 0.91	0/18
HMSMLTLQGMRQRNSVA	QMTTREN	QQYDRLPLS	1.11 1.19 1.63 1.40 1.64 1.90	0/18
MISQLYNIGQFAINSVA	QASTRNA	QQYDRLPLI	nd nd 1.34 nd 3.04 nd	0/18
KLTQVSGHLQVEKNNVA	EMETREN	QQYDRLPLS	0.87 0.92 0.43 0.53 0.68 0.86	0/18
IVSQLMIWGMHVKNSIA	EAELRLN	QQYERLPLF	nd 2.39 1.50 0.75 nd nd	0/18
MIYAATMELGRAKNSIA	DNVTRYD	QQYERLPLS	1.85 nd nd 2.18 nd 4.66	0/18
HMSMMTLMGSRNRNSVA	QMTTREN	QQYDRLPLA	0.61 0.62 0.44 0.66 0.52 0.73	0/18
SLGLVTMLEYANRNNVA	NNSTRES	QQYDRLPLS	nd nd nd nd nd nd	0/18
MLSQMFAIGMKVSNSVA	QVSTRFE	QQYDRLPLI	0.98 1.00 nd 1.33 0.84 1.86	0/18
IVSQLMIWGMHAKNSIA	EAETRFN	QQYDRLPLF	nd nd nd nd nd nd	1/18 (2.42)
IIDQIMYHGNKRANSIA	QASERLN	QQYHHLPLT	1.14 1.28 1.04 1.12 1.21 1.10	0/18
KISMVAGHMSMSKNNVA	EMVTREN	QQYDRLPLS	1.23 1.85 1.34 1.04 1.37 1.63	0/18
MLSGVLHMLGAKKNSIA	DLVNRAN	QQYHRLPLM	nd 2.30 1.44 2.15 1.47 nd	0/18
KISMLTRVGSTHGNSIA	EEATRAK	QQYHRLPLF	1.14 1.02 1.21 0.72 1.84 1.53	1/18 (2.47)
MLSQMTGLGQKVRNSVA	QASMRFN	QQYFRLPLI	nd 2.02 nd nd 2.65 3.41	0/18
KIGMTLNTLSHKQNNVA	DLVTREN	QQYFRLPLS	0.75 0.18 0.19 0.52 0.48 0.81	0/18

For reference, 4 entries of the list once more:

{"CDR-L1": "KLRSVTGTEKVNGNNVA", "CDR-L2": "EMETRER", "CDR-L3": "QQYNRLPLS", "log10 Kd, replicates": "0.67 0.54 0.33 0.46 0.60 0.51", "signal with controls": "1/18 (3.33)"}
{"CDR-L1": "TISQMSTLFSQTINNVA", "CDR-L2": "EVSTREE", "CDR-L3": "QQYDRLPLM", "log10 Kd, replicates": "0.75 0.18 0.36 0.20 0.57 0.51", "signal with controls": "0/18"}
{"CDR-L1": "KIGATLNFLEHKQNNVA", "CDR-L2": "DLVMREN", "CDR-L3": "QQYHRLPLS", "log10 Kd, replicates": "nd nd 1.15 nd 0.88 1.63", "signal with controls": "0/18"}
{"CDR-L1": "IIDQIMYHGNKRANSIA", "CDR-L2": "QASERLN", "CDR-L3": "QQYHHLPLT", "log10 Kd, replicates": "1.14 1.28 1.04 1.12 1.21 1.10", "signal with controls": "0/18"}

Data: MIT Lincoln Laboratory AlphaSeq set, Li et al. 2023, doi:10.1038/s41467-023-39022-2, as distributed in FLAb.